In PubChem BioAssay (NCATS):
The list shows a part of the results, in another mix than the full data. Records with an inconclusive call do not appear. The source made the active and inactive calls. Unless noted, calls follow the shape of the dose curve; as a rule, active = well fitted curve in the direction sought with a large enough effect; inconclusive = small, poorly fitted or top-dose-only effect, or another doubt; inactive = no such curve, though single readings can be large; an effect the other way counts as inactive or inconclusive.

Protein sequences, listed by entry. Tags and fused reporters are not part of them. Lines headed by an entry give the natural chain unless they say otherwise; changes in a name come on top.
UniProt O15297: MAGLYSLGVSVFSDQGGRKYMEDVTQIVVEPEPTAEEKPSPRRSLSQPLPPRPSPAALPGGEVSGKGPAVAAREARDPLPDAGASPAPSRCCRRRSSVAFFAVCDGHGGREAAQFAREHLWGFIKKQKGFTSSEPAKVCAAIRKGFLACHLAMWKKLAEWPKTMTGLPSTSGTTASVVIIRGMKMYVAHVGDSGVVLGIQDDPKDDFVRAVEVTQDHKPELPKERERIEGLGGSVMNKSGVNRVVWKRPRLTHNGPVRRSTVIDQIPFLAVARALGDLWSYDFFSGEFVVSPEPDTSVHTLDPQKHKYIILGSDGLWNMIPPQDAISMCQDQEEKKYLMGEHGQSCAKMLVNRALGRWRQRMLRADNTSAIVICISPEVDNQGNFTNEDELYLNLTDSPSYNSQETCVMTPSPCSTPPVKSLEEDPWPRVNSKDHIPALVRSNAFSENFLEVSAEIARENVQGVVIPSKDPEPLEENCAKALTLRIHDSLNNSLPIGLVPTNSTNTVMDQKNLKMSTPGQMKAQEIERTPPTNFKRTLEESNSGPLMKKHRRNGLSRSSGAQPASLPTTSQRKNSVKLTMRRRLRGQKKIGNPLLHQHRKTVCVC
UniProt Q99828: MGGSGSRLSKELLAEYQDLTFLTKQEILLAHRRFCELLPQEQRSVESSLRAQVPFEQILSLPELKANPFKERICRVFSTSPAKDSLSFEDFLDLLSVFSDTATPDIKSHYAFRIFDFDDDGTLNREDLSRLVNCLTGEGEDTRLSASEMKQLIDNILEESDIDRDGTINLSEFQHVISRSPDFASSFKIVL
UniProt Q9R1A7: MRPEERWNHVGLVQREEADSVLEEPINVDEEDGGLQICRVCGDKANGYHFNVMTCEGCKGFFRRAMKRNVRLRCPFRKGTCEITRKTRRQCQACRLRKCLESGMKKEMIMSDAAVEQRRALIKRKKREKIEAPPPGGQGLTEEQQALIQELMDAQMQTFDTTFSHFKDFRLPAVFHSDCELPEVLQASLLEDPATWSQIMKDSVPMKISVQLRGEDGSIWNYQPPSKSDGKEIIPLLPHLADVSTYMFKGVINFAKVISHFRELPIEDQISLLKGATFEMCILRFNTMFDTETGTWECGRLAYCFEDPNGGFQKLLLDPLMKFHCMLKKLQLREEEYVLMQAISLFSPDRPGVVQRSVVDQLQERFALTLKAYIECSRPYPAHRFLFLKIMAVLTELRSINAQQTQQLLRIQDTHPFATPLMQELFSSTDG

Key:
[1] = qHTS of pediatric cancer cell lines to identify multiple opportunities for drug repurposing: Primary screen for SK-N-SH cells (AID 1347098); settings: SK-N-SH viability, CellTiter-Glo luminescence, 48 h; at 57 µM (top of the series) unless noted;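 also: DMSO served as neutral control and bortezomib at 2.3 µM as positive control; % is scaled to controls: 0 for no effect and ±100 for the full control effect; nearly all actives have a fitted effect of over 65% in size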
[2] = qHTS of pediatric cancer cell lines to identify multiple opportunities for drug repurposing: Primary screen for NB1643 cells (AID 1347099); settings: NB1643 neuroblastoma viability, CellTiter-Glo luminescence, 48 h; at 46 µM (top of the series) unless noted;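 also: plate controls were DMSO neutral control for no effect and bortezomib positive control for full effect; nearly all actives have a fitted effect of over 50% in size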
[3] = qHTS of pediatric cancer cell lines to identify multiple opportunities for drug repurposing: Primary screen for LAN-5 cells (AID 1347100); settings: LAN-5 neuroblastoma viability, CellTiter-Glo luminescence, 48 h; at 46 µM (top of the series) unless noted;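 also: plate controls were DMSO neutral control for no effect and bortezomib positive control for full effect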
[4] = qHTS of pediatric cancer cell lines to identify multiple opportunities for drug repurposing: Primary screen for BT-12 cells (AID 1347101);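 also: plate controls were DMSO for no effect and bortezomib positive control for full effect; nearly all actives have a fitted effect of over 25% in size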
[5] = qHTS of pediatric cancer cell lines to identify multiple opportunities for drug repurposing: Primary screen for Rh18 cells (AID 1347102); settings: Rh18 rhabdomyosarcoma viability, CellTiter-Glo luminescence, 48 h; at 46 µM (top of the series) unless noted; also: % is scaled to controls: 0 for no effect and ±100 for the full control effect; nearly all actives have a fitted effect of over 65% in size
[6] = qHTS of pediatric cancer cell lines to identify multiple opportunities for drug repurposing: Primary screen for OHS-50 cells (AID 1347103);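 also: plate controls were DMSO neutral control for no effect and bortezomib positive control for full effect; nearly all actives have a fitted effect of over 40% in size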
[7] = qHTS of pediatric cancer cell lines to identify multiple opportunities for drug repurposing: Primary screen for RD cells (AID 1347104); settings: RD rhabdomyosarcoma viability, CellTiter-Glo luminescence, 48 h; at 46 µM (top of the series) unless noted;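 also: plate controls were DMSO for no effect and bortezomib for full effect; nearly all actives have a fitted effect of over 55% in size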
[8] = qHTS of pediatric cancer cell lines to identify multiple opportunities for drug repurposing: Primary screen for MG 63 (6-TG R) cells (AID 1347105); settings: MG 63 (6-TG R) viability, CellTiter-Glo, 48 h; at 46 µM (top of the series) unless noted; also: % is scaled to controls: 0 for no effect and ±100 for the full control effect; nearly all actives have a fitted effect of over 50% in size
[9] = qHTS of pediatric cancer cell lines to identify multiple opportunities for drug repurposing: Primary screen for control Hh wild type fibroblast cells (AID 1347106); settings: Hh wild-type fibroblast viability, CellTiter-Glo luminescence, 48 h; at 46 µM (top of the series) unless noted;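 also: % is scaled to controls: 0 for no effect and ±100 for the full control effect; a drop in luminescence marks cytotoxicity and a rise apparent proliferation; nearly all actives have a fitted effect of over 55% in size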
[10] = qHTS of pediatric cancer cell lines to identify multiple opportunities for drug repurposing: Primary screen for Rh30 cells (AID 1347107); settings: Rh30 rhabdomyosarcoma viability, CellTiter-Glo luminescence, 48 h; at 46 µM (top of the series) unless noted; also: % is scaled to controls: 0 for no effect and ±100 for the full control effect; nearly all actives have a fitted effect of over 75% in size
[11] = qHTS of pediatric cancer cell lines to identify multiple opportunities for drug repurposing: Primary screen for Rh41 cells (AID 1347108); settings: Rh41 rhabdomyosarcoma viability, CellTiter-Glo luminescence, 48 h; at 46 µM (top of the series) unless noted;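 also: luminescence drop marks cytotoxic hits; nearly all actives have a fitted effect of over 70% in size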
[12] = qHTS to identify inhibitors of the type 1 interferon - major histocompatibility complex class I in skeletal muscle: primary screen against the NCATS Pharmaceutical Collection (AID 1347407); settings: human skeletal muscle cells, IFN-b-induced MHC-I HiBiT luminescence, 24 h; at 45.9 µM (top of the series) unless noted;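 also: luminescence of HiBiT knocked into endogenous HLA-B as interferon-induced MHC class I level; % is scaled to controls: 0 for no effect and ±100 for the full control effect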
How it was run: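 Cells were seeded with 4 ng/ml IFN-beta, incubated 1 h, then dosed with compounds over eight 1:5 steps up to 46 uM final. After 24 h at 37 C, HiBiT lytic reagent was added and luminescence read after 10 min lysis in the dark.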

[13] = molecular target: Protein phosphatase 1D (Homo sapiens) (UniProt O15297); assay: RapidFire Mass Spectrometry qHTS Assay for Modulators of WT P53-Induced Phosphatase 1 (WIP1) (AID 1347424); settings: WIP1 dephosphorylation of phosphopeptide, RapidFire MS; at 63 µM (top of the series) unless noted;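 also: amount of dephosphorylated VEPPL-S-QETFS peptide product formed by WIP1; plate controls were DMSO wells for no effect and GSK830371 inhibitor control at 10 µM for full effect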
How it was run: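 RapidFire mass spectrometry measured dephosphorylated peptide after 5 min room-temperature reaction of 2 uM VEPPL-pS-QETFS with 10 nM WIP1 (50 mM Tris-HCl pH 7.5, 30 mM MgCl2, 0.1 mM EGTA, BSA), following 1 hr compound preincubation; 1 uM isotope-labelled product standard.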

[14] = molecular target: Protein phosphatase 1D (Homo sapiens) (UniProt O15297); assay: Rhodamine-PBP qHTS Assay for Modulators of WT P53-Induced Phosphatase 1 (WIP1) (AID 1347425); settings: recombinant WIP1, Rhodamine-PBP phosphate fluorescence, real-time; at 57.5 µM (top of the series) unless noted; also: % of control where 0% means no effect
How it was run: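 WIP1 (5 nM final) was preincubated with compound for 1 hour at room temperature. It then dephosphorylated 10 uM VEPPL-pS-QETFS peptide in Tris-HCl pH 7.5 with 30 mM MgCl2. Released Pi was detected by 10 uM Rh-PBP fluorescence (ex 525/em 598 nm) read at 1-min intervals for 11 min, as delta f1 - f0.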

[15] = Primary qHTS for Huh7 cytotoxicity: counterscreen for inhibitors of MERS-S pseudotyped particle cell entry (AID 1479147; calls by dose curve); settings: cell viability read-out; at 57.1 µM (top of the series)
[16] = molecular target: Calcium and integrin-binding protein 1 (Homo sapiens) (UniProt Q99828); assay: Primary qHTS for Identification of Calcium Integrin Binding Protein 1 (CIB1) Competitor (AID 1508620); settings: CIB1-GST / FITC-alphaIIb peptide fluorescence polarization; at 114 µM (top of the series) unless noted;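 also: GST tagged CIB1 binding a fluorescein labelled alphaIIb integrin peptide tracer; top concentration of the series differs between compounds; % is scaled to controls: 0 for no effect and ±100 for the full control effect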
[17] = A High-Content qHTS Against Drug Library for the Identification of Small Molecules that Inhibit DYT1 Early Onset Primary Dystonia-Associated Cell Pathology (AID 1645839; calls by dose curve)
How it was run: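 High-content imaging quantified EGFP-TorsinA mislocalization in HEK293-derived cells inducibly expressing DYT1 mutant torsinA, after 48 h exposure to compound given together with tetracycline induction. Cell count served as a toxicity channel alongside %pathology.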

[18] = system: CRL-7250; assay: Cytotoxic Profiling of Annotated Libraries Using Quantitative High-Throughput Screening (AID 1296008); settings: Five cell lines viability, CellTiter-Glo ATP luminescence, 48-72 h; stronger effect = lower value; also: nearly all actives have a fitted effect of over 60% in size; as to max response: % is scaled to controls: 0 for no effect and ±100 for the full control effect
[19] = system: HaCat; assay: as above; settings: Five cell lines viability, CellTiter-Glo ATP luminescence, 48-72 h; stronger effect = lower value
[20] = system: KB-3-1; assay: as above; settings: Five cell lines viability, CellTiter-Glo ATP luminescence, 48-72 h, stronger effect = lower value
[21] = system: NIH3T3; assay: as above; settings: Five cell lines viability, CellTiter-Glo ATP luminescence, 48-72 h; stronger effect = lower value
[22] = system: CRL-7250; assay: qHTS assay to identify novel small-molecules to repurpose for Merkel cell carcinoma treatment (AID 1296009); settings: MCC and control cell lines, CellTiter-Glo viability, 72 h; at 44.8 µM (top of the series) unless noted; also: nearly all actives have a fitted effect of over 60% in size; as to activity change, negative = cytotoxicity: % is scaled to controls: 0 for no effect and ±100 for the full control effect
[23] = system: MCC-13; assay: as above; settings: MCC and control cell lines, CellTiter-Glo viability, 72 h; at 46 µM (top of the series) unless noted
[24] = system: MCC-26; assay: as above; settings: MCC and control cell lines, CellTiter-Glo viability, 72 h; at 46 µM (top of the series) unless noted
[25] = system: MKL-1; assay: as above; settings: MCC and control cell lines, CellTiter-Glo viability, 72 h; at 46 µM (top of the series) unless noted
[26] = system: MKL-2; assay: as above; settings: MCC and control cell lines, CellTiter-Glo viability, 72 h; at 46 µM (top of the series) unless noted
[27] = system: UISO; assay: as above; settings: MCC and control cell lines, CellTiter-Glo viability, 72 h; at 46 µM (top of the series)
[28] = system: WaGa; assay: as above; settings: MCC and control cell lines, CellTiter-Glo viability, 72 h; at 46 µM (top of the series) unless noted
[29] = Drug repurposing screens with cells derived from glioblastoma tumor samples (AID 1345199); settings: GBM patient neurospheres viability, ATP luminescence, 48 h; Potency: tumour line A; series mostly up to 46.1 µM; also: % is scaled to controls: 0 for no effect and ±100 for the full control effect; nearly all actives have a fitted effect of over 40% in size
How it was run: (§1)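 Primary testing used CD133+ neurospheres from four GBM patients, seven concentrations, 48 h exposure and ATP-based viability; confirmation added three slower-growing patient lines.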

[30] = system: astro; assay: as above; settings: viability, ATP luminescence, 48 h; at 45.9 µM (top of the series) unless noted
How it was run: as §1

[31] = molecular target: Nuclear receptor subfamily 1 group I member 2 (Rattus norvegicus) (UniProt Q9R1A7); assay: qHTS assay for small molecule activators of the rat pregnane X receptor (rPXR) signaling pathway (AID 651751; call rule not given here; also: 0% is about no effect); settings: rPXR reporter cells, luciferase (One-Glo), 24 h
[32] = qHTS assay for small molecule activators of the human pregnane X receptor (PXR) signaling pathway (AID 720659; call rule not given here; also: 0% is about no effect); settings: DPX-2 HepG2 CYP3A4-luciferase, 24 h; at 92.3 µM (top of the series)

NC(=O)Nc1ccc([As](=O)(O)O)cc1
inactive: activity change, negative = cytotoxic [1] -7.76% | activity change, negative = cytotoxic [2] 16.9% | activity change, negative = cytotoxic [3] -0.423% | Potency [4] | activity change, negative = cytotoxic [5] -4.25% | Potency [6] | activity change, negative = cytotoxic [7] 19.9% | activity change, negative = cytotoxic [8] -8.83% | activity change, negative = cytotoxic [9] -6.15% | activity change, negative = cytotoxic [10] 20.1% | activity change, negative = cytotoxic [11] 20.6% | activity change, negative = inhibition [12] -0.273% | activity change, negative = inhibition [13] -2.8% | activity change, negative = inhibition [14] 3.79% | outcome [15] | activity change, negative = inhibition [16] -12.6% | Potency [17] | outcome [18] | max response [19] -17.8% | max response [20] -1.83% | max response [21] -15.5% | outcome [22] | activity change, negative = cytotoxicity [23] 14.2% | activity change, negative = cytotoxicity [24] 2.06% | activity change, negative = cytotoxicity [25] 20.2% | activity change, negative = cytotoxicity [26] 7.86% | activity change, negative = cytotoxicity [27] 13.3% | activity change, negative = cytotoxicity [28] 4.95% | Potency [29] | activity, negative = cell killing [30] -4.79% | max response [31] 13.3% | activation [32] -7.31%
